These are literature values, as cited in patent publication US7507707B2, “Methods of inducing ovulation using a non-polypeptide camp level modulator” (Laboratoires Serono SA, priority 2001, dated 2009).

The conditions of the data set: cited from earlier work.

Consider “hCG: glycoprotein hormone that is biologically and immunologically similar to pituitary LH”, for which the “detectable in the patient's blood after injection” value (after injection) is 7 to 10 days. Further, where the note is “patient”, the half-life entry is reported as “approximately 8 hours”.
